Ab-91 heavy chain CDR variants: yeast mating affinities

The measurements come from Engelhart et al. 2022 (doi:10.1038/s41597-022-01779-4) through the FLAb antibody collection.

Antigen: PDVDLGDISGINAS, a 14-residue peptide of the SARS-CoV-2 spike HR2 region.

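The parent was found by panning a naive human phage display library on the peptide. In library AAYL51, one, two or three CDR residues were substituted; doubles and triples were drawn at random. Affinity was read by AlphaSeq, a pooled yeast mating assay with surface-displayed partners. Binding brings cells together so that they mate, and sequencing counts the barcode pairs among the diploids. Each replicate has its own calibration line, from reference interactions of the BCL2 family. Each pool was mated in three replicate cultures.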

Ab-91 is the parent antibody, in scFv form: VL, then a 15-residue (Gly4Ser)3 linker, then VH. The light chain is unchanged in all variants.
VL: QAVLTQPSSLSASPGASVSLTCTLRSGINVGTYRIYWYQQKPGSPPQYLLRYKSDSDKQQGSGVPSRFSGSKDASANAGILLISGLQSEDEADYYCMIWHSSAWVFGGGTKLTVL
VH: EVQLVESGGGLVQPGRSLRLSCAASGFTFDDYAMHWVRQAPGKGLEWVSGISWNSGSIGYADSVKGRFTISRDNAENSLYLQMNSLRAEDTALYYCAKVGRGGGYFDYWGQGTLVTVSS

Positions count from residue 1 of the parent VH; D30I puts I in place of D. Affinities are written as log10 Kd with Kd in nM; a lower number is a better binder. The mean shown is taken over the replicates in which the pair was detected. "nd" means that the variant was in the library but no mating with the target was seen in any replicate; the authors take this as a sign of poor binding, and no number exists. As a blank, each scFv also met three strains without target: over library AAYL51, 21% of these pairings were detected, typically at 4.54 and seldom below 3.26. The control count says in how many pairings with the empty strains this scFv gave a signal.

changes | mean log10 Kd (nM) | replicates with signal | empty controls
D30I+A61G+R101H | 3.12 | 1 of 3 | 4 of 9
S52G+V99W+G100A | 4.74 | 3 of 3 | 1 of 9
A33W+N54Q+S63D | nd | 0 of 3 | 0 of 9
G56F+I58Y+Y105E | 4.65 | 2 of 3 | 1 of 9
F27K+D31A+Y108L | 3.64 | 3 of 3 | 3 of 9
W53R+Y60K+V99Q | 4.01 | 1 of 3 | 3 of 9
I58N+G59R+S63I | nd | 0 of 3 | 1 of 9
F27V+T28M+R101P | 2.86 | 3 of 3 | 3 of 9
H35I+V99H | nd | 0 of 3 | 0 of 9
M34A+H35T+G104L | nd | 0 of 3 | 2 of 9
D30C+V64S+V99T | 5.29 | 3 of 3 | 6 of 9
Y32V+V64F | nd | 0 of 3 | 1 of 9
A33K+K65S | 5.45 | 2 of 3 | 3 of 9
Y32D+I51W+V99G | nd | 0 of 3 | 2 of 9
A61N+K65M+R101L | 5.17 | 3 of 3 | 4 of 9
V64L+Y108T | 1.03 | 3 of 3 | 2 of 9
Y60A+K65C | 3.49 | 2 of 3 | 2 of 9
W53S+S57V+A61D | 3.67 | 3 of 3 | 2 of 9
H35L+S57R | nd | 0 of 3 | 2 of 9
F27A+S52G+K65D | nd | 0 of 3 | 2 of 9
M34V+S57D+F106G | nd | 0 of 3 | 1 of 9
I51T+Y105M+Y108P | 3.80 | 2 of 3 | 1 of 9
H35I+I51A+F106W | nd | 0 of 3 | 0 of 9
M34G+G50R+R101Q | 5.20 | 2 of 3 | 2 of 9
F29Q+D31Y+D62R | nd | 0 of 3 | 0 of 9
Y60R+D107Y+Y108I | nd | 0 of 3 | 1 of 9
A33S+G50K+S63G | 3.50 | 1 of 3 | 1 of 9
S55L+S63W+F106T | 4.91 | 1 of 3 | 2 of 9
S52T+A61S+S63H | 4.11 | 1 of 3 | 1 of 9
F29R+G100S+G104N | 5.73 | 2 of 3 | 5 of 9
D30H+G50Y+I51D | 3.79 | 1 of 3 | 2 of 9
G26P+G59Q+D107P | 4.31 | 1 of 3 | 2 of 9
I51A+G103S+Y105Q | 4.42 | 1 of 3 | 0 of 9
M34F+H35C+I51A | 5.41 | 1 of 3 | 1 of 9
A61E+D62E+V99M | 5.23 | 3 of 3 | 6 of 9
D31I+A33H+M34W | nd | 0 of 3 | 0 of 9
D30F+H35G+Y105Q | nd | 0 of 3 | 1 of 9
G56F+K65H+G104E | 2.12 | 3 of 3 | 4 of 9
D31Q+D107P | 2.90 | 3 of 3 | 2 of 9
F27D+T28W+G102A | 4.05 | 1 of 3 | 1 of 9
F29E+D30G+F106D | nd | 0 of 3 | 1 of 9
D30Q+K65P+Y108E | 4.58 | 1 of 3 | 0 of 9
Y32D+M34Q+G50D | nd | 0 of 3 | 0 of 9
S52R+I58G+S63R | nd | 0 of 3 | 1 of 9
G50D+G56H+V99F | nd | 0 of 3 | 6 of 9
I58D+V64D+G104A | 5.20 | 1 of 3 | 1 of 9
T28Q+G104N+Y105M | 3.17 | 1 of 3 | 0 of 9
F29A+A61S+Y105H | 5.01 | 2 of 3 | 4 of 9
W53Y+D62E+V64Y | 0.58 | 3 of 3 | 2 of 9
W53C+V64A+G100D | 4.94 | 1 of 3 | 1 of 9
H35P+G103H | nd | 0 of 3 | 1 of 9
G26F+D30Q+G102I | 4.79 | 1 of 3 | 1 of 9
D30W+I51N+V64H | nd | 0 of 3 | 0 of 9

In this assay the parent's reference entry averaged 1.86; its copy inside this library read 0.88.